{
  "source": "paper PMC5516987",
  "about": "“Safety and pharmacodynamics of dalazatide, a Kv1.3 channel inhibitor, in the treatment of plaque psoriasis: A randomized phase 1b trial” (PLoS ONE, 2017)",
  "key": {"[1]": {"system": "viral and bacterial infections", "settings": "chronically treated animals, versus vehicle; cited from earlier work", "description": "Dalazatide (previously referred to as ShK-186 and SL5) is a 37-amino acid synthetic peptide that is a specific inhibitor of the voltage-gated Kv1.3 potassium channel. It is a derivative of ShK, which was originally isolated from the venom of the sea anemone Stichodactyla helianthus. Human T cells rely on two potassium channels, Kv1.3 and KCa3.1 to maintain the calcium signaling required for their activation and differentiation, by maintaining a balance between calcium influx and potassium efflux. Chronically activated memory T cells that rely on upregulation of Kv1.3 expression for ..."}, "healthy volunteers [2]": {"system": "healthy volunteers", "settings": "cited from earlier work; for Group-median exposure: ShK-186/198, ref study 186-01, Investigator Brochure", "procedure": "The drug product consists of ShK -186 formulated at 1 mg/mL in an isotonic solution of water for injection and USP grade sodium phosphate (10 mM), sodium chloride (0.8%), and Polysorbate 20 (0.05%). The drug product must be di ..."}, "[3]": {"assay": "Plasma pharmacokinetics by 2D-LC-MS/MS", "format": "in vivo, human", "settings": "for Cmax, mean (SD) / Cmax: LLOQ 75 pg/ml; for AUClast, mean (SD) / AUC(0-t): linear trapezoidal rule; for Tmax / Cmax / AUC(0-t): human; for Tmax: read-out: Tmax, median (range); for Cmax: LLOD 10 pg/ml, values between extrapolated, read-out: Cmax, mean (SD); for AUC(0-t): time 0 to last measurable point (to 4 h), read-out: AUClast, mean (SD)", "procedure": "Pharmacokinetic (PK) analysis, including serum concentration, maximum concentration (Cmax), time to reach Cmax (tmax), and area under the curve (AUC) from time 0 to the last measurable time point calculated using the linear trapezoidal rule, were assessed as secondary endpoints for all patients. Plasma samples were obtained on Day 1 (predose, 0.083, 0.25, 0.5, 1, 2, and 4 hour), Day 15 (predose), and Day 29 (predose, 0.083, 0.25, 0.5, 1, 2, 4, hour). The PK samples were analyzed for dalazatide concentration by using a qualified high-sensitivity, two-dimensional liquid chromatography tandem mass spectrometry (2D-LC-MS/MS)-based assay. The lower limit of quantification (LLOQ) for the qualified method was 75 pg/ml. The lower limit of detection (LLOD) of the assay based on the standard curve was set as 10 pg/ml, and reported values for samples between the LLOQ and LLOD were extrapolated from the assay standard curve. Any samples below the LLOD were reported as below the limit of quantitation."}, "[4]": {"assay": "Anti-drug antibody (ADA) ELISA with immune-depletion specificity assay", "format": "in vivo, human", "settings": "serum, Days −1, 15, 29 and 57; ELISA plus specificity assay", "description": "Serum samples were collected from all patients on Days −1, 15, 29, and 57 and analyzed for dalazatide anti-drug antibodies (ADA) by a non-GLP ADA ELISA, utilizing derail dilutions of anti-dalazatide monoclonal antibody P3B3 in pooled human serum as the primary antibody and a horseradish peroxidase conjugated recombinant protein A/G secondary antibody. Optical densities for each well were obtained using a spectrophotometer set at 450 nm wavelength. Samples with readings above the ELISA cutoff point were analyzed by using an immune-depletion assay to assess antibody specificity. Samples with a ≥50% reduction of signal after incubation with dalazatide were considered to be positive for specific anti-dalazatide antibodies."}, "healthy volunteers [5]": {"system": "healthy volunteers", "settings": "cited from earlier work", "description": "Dalazatide has been evaluated for safety and tolerability in both healthy volunteers as well as patients with plaque psoriasis. No serious adverse events, discontinuations due to adverse events, or deaths occurred during this study and none have occurred during the clinical development program for dalazatide. […] The most common treatment-related adverse events for dalazatide were instances of paresthesia and hypoesthesia that were somewhat dose dependent. […] The drug product consists of ShK -186 formulated at 1 mg/mL in an isotonic solution of water for injection and USP grade sodium phosphate (10 mM), sodium chloride (0.8%), and Polysorbate 20 (0.05%). The drug product must be di ..."}, "[6]": {"settings": "cited from earlier work", "description": "One potassium channel blocking drug that has been tested in humans is the nonselective potassium channel inhibitor, 4-aminopyridine (4-AP, fampridine, dalfampridine). Various formulations of 4-AP have been evaluated for their potential to increase nerve conduction and improve function in spinal cord injury, autoimmune diseases involving the nervous system, and diseases of nerve conduction. The most commonly reported adverse events are paresthesia (perioral and digital), nausea, dizziness, headache, and insomnia. Although infrequent, the most serious toxicity reported in patients treated ..."}, "[7]": {"settings": "Day 29 (repeat dosing, twice weekly), 60 mcg SC, n = 10, plasma, 2D-LC-MS/MS"}},
  "note": "Where two headings read alike, the source gives them in different places.",
  "data": [
    {"smiles": "CC[C@H](C)[C@@H]1NC(=O)[C@@H](NC(=O)[C@H](CO)NC(=O)[C@H](CCCNC(=N)N)NC(=O)COCCOCCNC(=O)[C@@H](N)Cc2ccc(OP(=O)(O)O)cc2)CSSC[C@@H](C(N)=O)NC(=O)[C@H]([C@@H](C)O)NC(=O)CNC(=O)[C@@H]2CSSC[C@@H]3NC(=O)[C@H](CCC(N)=O)NC(=O)[C@H](Cc4ccccc4)NC(=O)[C@H](C)NC(=O)[C@H]([C@@H](C)O)NC(=O)[C@H](CSSC[C@H](NC(=O)[C@H](Cc4ccccc4)NC(=O)[C@H](CO)NC(=O)[C@H](CC(C)C)NC(=O)[C@H](CCCNC(=N)N)NC(=O)[C@H](Cc4ccc(O)cc4)NC(=O)[C@H](CCCCN)NC(=O)[C@H](CCSC)NC(=O)[C@H](CO)NC(=O)[C@H](Cc4c[nH]cn4)NC(=O)[C@H](CCCCN)NC3=O)C(=O)N[C@@H](CCCNC(=N)N)C(=O)N[C@@H](CCCCN)C(=O)N[C@@H]([C@@H](C)O)C(=O)N2)NC(=O)[C@H](CCCNC(=N)N)NC(=O)[C@H](CO)NC(=O)[C@H](CCCCN)NC(=O)[C@@H]2CCCN2C(=O)[C@H]([C@@H](C)CC)NC(=O)[C@H]([C@@H](C)O)NC(=O)[C@H](CC(=O)O)NC1=O", "note": "[Dalazatide]", "values": [
      {"measurement": "Clearance of viral and bacterial infections", "setting": "[1]", "value": "able to clear viral and bacterial infections similar to vehicle treated animals"},
      {"measurement": "Dose proportionality of single-dose systemic exposure", "setting": "healthy volunteers [2]; 5 to 60 µg, ref study 186-01", "value": "generally dose-proportional"},
      {"measurement": "Group-median exposure", "setting": "healthy volunteers [2]; single 15 µg dose, healthy volunteers", "value": 0.478, "unit": "ng·h/mL"},
      {"measurement": "Group-median exposure", "setting": "healthy volunteers [2]; single 30 µg dose, healthy volunteers", "value": 0.848, "unit": "ng·h/mL"},
      {"measurement": "Group-median exposure", "setting": "healthy volunteers [2]; single 60 µg dose, healthy volunteers", "value": 1.42, "unit": "ng·h/mL"},
      {"measurement": "Tolerability", "setting": "healthy volunteers [2]; single doses of 5, 15, 30 and 60 µg, healthy volunteers, ref study 186-01", "value": "well tolerated"},
      {"measurement": "Dose proportionality of exposure (mean Cmax and AUClast)", "setting": "[3]; Day 1, 30 versus 60 mcg/dose", "value": "less than dose-proportional"},
      {"measurement": "Cmax, mean (SD)", "setting": "[3]; Day 29 (repeat dosing, twice weekly), 30 mcg SC, n = 10, plasma, 2D-LC-MS/MS", "value": "76.7 (32.5) pg/ml"},
      {"measurement": "AUClast, mean (SD)", "setting": "[3]; Day 29 (repeat dosing, twice weekly), 30 mcg SC, n = 10, plasma", "value": "50.6 (23.3) h*pg/ml"},
      {"measurement": "Tmax, median (range)", "setting": "[3]; [7]", "value": "0.250 (0.0833, 0.500) hours"},
      {"measurement": "Cmax, mean (SD)", "setting": "[3]; [7]", "value": "137 (56.0) pg/ml"},
      {"measurement": "AUClast, mean (SD)", "setting": "[3]; Day 29 (repeat dosing, twice weekly), 60 mcg SC, n = 10, plasma", "value": "88.7 (36.3) h*pg/ml"},
      {"measurement": "Dose proportionality of exposure (mean Cmax and AUClast)", "setting": "[3]; Day 29, 30 versus 60 mcg/dose", "value": "approximately dose proportional"},
      {"measurement": "Tmax", "setting": "[3]; in vivo, 30 ug, Day 29 (repeat dosing, twice weekly), 30 mcg SC, n = 10, plasma, 2D-LC-MS/MS", "value": 15, "unit": "min"},
      {"measurement": "Cmax", "setting": "[3]; Day 1 (single dose), 30 mcg SC, n = 10, plasma, 2D-LC-MS/MS", "value": 0.0853, "unit": "ng/mL"},
      {"measurement": "Tmax", "setting": "[3]; Day 1 (single dose), 30 mcg SC, n = 10, plasma, 2D-LC-MS/MS, sampling to 4 h", "value": 15.5, "unit": "min"},
      {"measurement": "AUC(0-t)", "setting": "[3]; Day 1 (single dose), 30 mcg SC, n = 10, plasma", "value": 0.0553, "unit": "ng·h/mL"},
      {"measurement": "Cmax", "setting": "[3]; Day 1 (single dose), 60 mcg SC, n = 10, plasma, 2D-LC-MS/MS", "value": 0.137, "unit": "ng/mL"},
      {"measurement": "Tmax", "setting": "[3]; Day 1 (single dose), 60 mcg SC, n = 10, plasma, 2D-LC-MS/MS, sampling to 4 h", "value": 15, "unit": "min"},
      {"measurement": "AUC(0-t)", "setting": "[3]; Day 1 (single dose), 60 mcg SC, n = 10, plasma", "value": 0.0784, "unit": "ng·h/mL"},
      {"measurement": "Accumulation, Day 29 versus Day 1", "setting": "[3]; twice weekly SC dosing, 30 or 60 mcg", "value": "little or no accumulation"},
      {"measurement": "Patients who developed antibodies to dalazatide", "setting": "[4]", "value": "None"},
      {"measurement": "Patients who experienced paresthesia or hypoesthesia", "setting": "healthy volunteers [5]; 5 and 15 mcg/dose cohorts, ref ClinicalTrials.gov NCT02446340", "value": "only a portion of patients"},
      {"measurement": "Full neurological evaluations", "setting": "healthy volunteers [5]; in the presence of ongoing sensory-related adverse events and after they resolved, ref NCT02446340", "value": "considered normal"},
      {"measurement": "Subjects with paresthesia", "setting": "healthy volunteers [5]; subjects who received ≥15 µg twice weekly for 9 doses, ref study 186-02", "value": "most"},
      {"measurement": "Distribution across the intact blood-brain barrier", "setting": "[6]", "value": "not readily distributed across the intact blood-brain barrier"}
    ]}
  ]
}
